Test results published in patent publication US5854081A, “Stable expression of human A2B adenosine receptors, and assays employing the same” (The University of Patent Foundation, priority 1996, dated 1998).

Protein sequences, listed by entry. Tags and fused reporters are not part of them. Lines headed by an entry give the natural chain unless they say otherwise; changes in a name come on top. Chains listed by the source or under a name are the forms on record and can include a tag or linker.
UniProt P29274, with tags, fused parts or gaps: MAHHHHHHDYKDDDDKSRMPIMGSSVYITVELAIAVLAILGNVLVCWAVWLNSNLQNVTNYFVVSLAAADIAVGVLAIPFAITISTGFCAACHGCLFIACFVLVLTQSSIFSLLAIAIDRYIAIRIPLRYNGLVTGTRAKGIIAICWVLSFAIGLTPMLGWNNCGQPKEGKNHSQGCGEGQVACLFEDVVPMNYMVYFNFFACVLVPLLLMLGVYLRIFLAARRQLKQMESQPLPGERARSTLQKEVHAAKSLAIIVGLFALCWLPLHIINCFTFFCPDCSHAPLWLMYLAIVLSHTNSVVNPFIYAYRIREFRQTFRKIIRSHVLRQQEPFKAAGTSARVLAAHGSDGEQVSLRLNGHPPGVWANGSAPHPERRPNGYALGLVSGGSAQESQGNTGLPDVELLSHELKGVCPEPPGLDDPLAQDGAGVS

Legend:
[1] = target: recombinant human native-A2A adenosine receptor (Homo sapiens, UniProt P29274); experiment: Competition for radioligand binding, native-A2A; conditions: competition with 70 nM [^3 H]NECA
[2] = target: recombinant human H/F-A2A adenosine receptor (Homo sapiens, UniProt P29274); experiment: Competition for radioligand binding, H/F-A2A; conditions: competition with 70 nM [^3 H]NECA

CCCn1c(=O)c2[nH]c(C3CCCC3)nc2n(CCC)c1=O [CPX, 8-cyclopentyl-1,3-dipropylxanthine]
NH (Hill coefficient) [1]: 0.80 ± 0.06
NH (Hill coefficient) [2]: 0.77 ± 0.11
